Binding of CDR-mutated scFvs to a peptide of the spike HR2 region

The target is the same throughout: PDVDLGDISGINAS, from the HR2 region of SARS-CoV-2 spike.

Each scFv is VH, a 15-residue (Gly4Ser)3 linker, VL, as in the parent Ab-14, and differs from it in the CDRs of the heavy chain only.
VH: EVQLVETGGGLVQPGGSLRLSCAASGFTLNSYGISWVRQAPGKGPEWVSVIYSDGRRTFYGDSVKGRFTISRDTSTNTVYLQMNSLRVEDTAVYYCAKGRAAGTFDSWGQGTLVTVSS
VL: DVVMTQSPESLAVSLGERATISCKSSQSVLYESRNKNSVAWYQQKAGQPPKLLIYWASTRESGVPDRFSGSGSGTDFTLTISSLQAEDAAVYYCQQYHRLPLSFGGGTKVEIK

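The starting antibody came from a phage panning campaign against this peptide. The variants were designed computationally from a first round of random CDR variants and then made and measured. Several design methods are mixed in this list. In AlphaSeq, yeast of one mating type display the scFv and yeast of the other type display the target. Mating (16 h, 30 °C) was followed by selection of diploids and sequencing of their barcodes. The ratio of observed to expected reads was calibrated, replicate by replicate, on BCL2-family standards whose Kd was known from biolayer interferometry. Each pool was mated in six replicate cultures.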

Variants are written as CDR1, CDR2 and CDR3 of the heavy chain (limits as in the source). Parent: GFTLNSYGIS, VIYSDGRRTFYGDSVK, GRAAGTFDS. Affinities are written as log10 Kd with Kd in nM; a lower number is a better binder. The mean shown is taken over the replicates in which the pair was detected. Where no diploid with the target was found in any replicate, the entry reads "no signal": below detection, most likely a poor binder, though not proof of it.

With GFQLNEYGIS, VIYADGKRSEYQDSVK, GGNNSSFSL the result was no signal (0 of 6 replicates; controls 0 of 18).
With GFSLNEYGIS, VIYSDGRRTFYGDSVK, GLAAGTFDR the result was 0.61 (6 of 6 replicates; controls 1 of 18).
With GFSLEDYGIS, VIYADGRRTAYVNAVK, GTWGATILG the result was no signal (0 of 6 replicates; controls 2 of 18).
With GFDLNEYGIS, VIYADGMRVSYTNTVK, GQNSMISAT the result was no signal (0 of 6 replicates; controls 1 of 18).
With GFTLNSYGIS, VIYSDGRRTFYGDSVK, GRAYGTFDS the result was no signal (0 of 6 replicates; controls 0 of 18).
With GFNLDEYGIS, VIYADGRRTFYSDSVK, GSTAGTFDV the result was -0.75 (6 of 6 replicates; controls 0 of 18).
With GFNLNSYGIS, VIYSDGRRTAYKDSVK, GRAAGTFDS the result was 0.56 (6 of 6 replicates; controls 0 of 18).
With GFDLQEYGVS, VIYADGRRMVYTNKFK, GQSTGTFDF the result was no signal (0 of 6 replicates; controls 0 of 18).
With GDSLDEYGIS, VIYADGQRKAYMDSVK, GNGQGTLFD the result was no signal (0 of 6 replicates; controls 0 of 18).
With HFSLNSYGIS, VIYSDGRRTFYADSVK, GQTAGTFDS the result was 0.42 (6 of 6 replicates; controls 0 of 18).
With GFDLDEYGIS, VIYADGVRTAYSDSVK, GNQAGTFDV the result was 0.27 (5 of 6 replicates; controls 0 of 18).
With GFTLNDYGIS, VIYSDGRRTFYTDSVK, GRFAGTFDN the result was 1.48 (6 of 6 replicates; controls 0 of 18).
With GFDLDEYGIS, VIYADGRRTFYQDSVK, GNNAGTFDQ the result was -0.22 (6 of 6 replicates; controls 0 of 18).
With GFTLNSYGIS, VIYSDGQRTFYSDSVK, GRAAVTFDS the result was no signal (0 of 6 replicates; controls 0 of 18).
With PFTLNSYGIS, VIYSDGRRTFYDDSVK, GQLAGTFDS the result was 1.34 (5 of 6 replicates; controls 1 of 18).
With GFDINEYGIS, VIYADGMRRAYAQQVK, GHGEVLSMD the result was no signal (0 of 6 replicates; controls 1 of 18).
With GFSLNSYGIS, VIYSDGRRTFYGDNVK, GITAGTFDT the result was -0.05 (6 of 6 replicates; controls 0 of 18).
With GFDLNEYGIS, VIYADGRRTFYADSVK, GGNAGTFLV the result was 0.92 (4 of 6 replicates; controls 0 of 18).
With GFTLNSYGIS, VIYSDGRRTFYGGSVK, GEAAGTFDS the result was no signal (0 of 6 replicates; controls 0 of 18).
With GFDLEEMGIS, VIYADGSRKVYQDAVK, GGVSGDFDE the result was 1.94 (1 of 6 replicates; controls 1 of 18).
With GFDLDEYGIS, VIYADGRRTAYADSVK, GNTAGTFDV the result was -0.47 (6 of 6 replicates; controls 0 of 18).
With GFTLDSYGIS, VIYSDGRRTFYDDSVK, GRVAGTFDS the result was -0.08 (6 of 6 replicates; controls 2 of 18).
With GFTLNSYGIS, VIYSDGRRTFYSDSVK, GKHAGTFDT the result was 0.70 (6 of 6 replicates; controls 0 of 18).
With GFEIDEYGIS, VIYADGIRRQYADNVK, GYTDDAFDM the result was no signal (0 of 6 replicates; controls 1 of 18).
With GFTLNDYGIS, VIYSDGRRTFYGDSVK, GRHAGTFES the result was 2.54 (6 of 6 replicates; controls 1 of 18).
With GFTLNEYGIS, VIYSDGRRTFYTDSVK, GRFAGTFDM the result was 1.06 (6 of 6 replicates; controls 0 of 18).
With GFTLNDYGIS, VIYSDGRRTFYGDSVK, GNAAGTFMW the result was no signal (0 of 6 replicates; controls 0 of 18).
With GFSLNSYGIS, VIYSDGRRTFYDDSVK, GSAAGTFDS the result was -0.06 (6 of 6 replicates; controls 0 of 18).
With LFTLNSYGIS, VIYSDGRRTFYGDSVK, GRAGGTFDS the result was no signal (0 of 6 replicates; controls 0 of 18).
With GFDLDEYGIS, VIYADGMRTVYADSVK, GEVAGTFDV the result was -0.44 (6 of 6 replicates; controls 0 of 18).
With GFDLEEMGVS, VIYADGIRTAVSEDVK, GNVAGTGDF the result was no signal (0 of 6 replicates; controls 0 of 18).
With GFTLESYGIS, VIYSDGRRTFYGDSVK, GQAAGTFDS the result was 0.90 (2 of 6 replicates; controls 0 of 18).
With GFDLGEYGIS, VIYADGHRRAYSDNVK, GAHSGSVQT the result was no signal (0 of 6 replicates; controls 1 of 18).
With GFHLQEYGIS, VIYSDGRRTFYGDSVK, GRAAGTFDS the result was 0.92 (6 of 6 replicates; controls 1 of 18).
With GFELNSYGIS, VIYSDGKRTFYVDSVK, GRQAGTFDS the result was 1.18 (5 of 6 replicates; controls 0 of 18).
With GFDLNSYGIS, VIYADGRRTFYGDSVK, GEAAGTFDS the result was -0.04 (6 of 6 replicates; controls 0 of 18).

A selection of 4 entries from above:

Variant GFDLQEYGVS, VIYADGRRMVYTNKFK, GQSTGTFDF showed no signal (0 of 6 replicates; controls 0 of 18).
Variant GFDLEEMGVS, VIYADGIRTAVSEDVK, GNVAGTGDF showed no signal (0 of 6 replicates; controls 0 of 18).
Variant GFSLEDYGIS, VIYADGRRTAYVNAVK, GTWGATILG showed no signal (0 of 6 replicates; controls 2 of 18).
Variant GFDLNEYGIS, VIYADGRRTFYADSVK, GGNAGTFLV showed 0.92 (4 of 6 replicates; controls 0 of 18).

Nonspecific signal, from three strains lacking the peptide, appeared in 1% of pairings of all heavy chain designs, centred on 2.08 (5% of these signals below 0.84); values are not corrected for it. The control count says in how many pairings with the empty strains this scFv gave a signal. Values of this round are not directly comparable with the first-round values of the same sequences. The authors averaged sequences with at least three values out of six and counted those with two or fewer as poor binders.

The measurements come from Li et al. 2023 (doi:10.1038/s41467-023-39022-2) through the FLAb antibody collection.